Several values for one entry are separate records, joined by “and”; a condition that tells them apart may be missing. Equal values may be shown once.
Assays:
[1] = system: male wild type mice (C57BL/6); experiment: Mice treated with LH, cinacalcet or hCG for 10 days; format: in vivo; conditions: 10 days, data not shown
Protocol: Eight weeks old male wild type mice (C57BL/6), caged at Biotest Facility, Trige, Denmark, were treated for 10 days with either: • vehicle (n=12; NaCl 0.9%×1 daily s.c.); • Cinacalcet (n=8; 30 mg/kg, ×1 daily), (Cinacalcet is in a class of medications called calcimimetics which works by signaling the body to produce less parathyroid hormone (PTH) in order to decrease the amount of calcium in the blood); • LH (n=8; 66.7 IU/kg×1 daily s.c.); • LH in combination with Cinacalcet (n=8; 66.7 IU/kg×1 daily s.c+cinacalcet orally 30 mg/kg once daily); or • hCG (n=8; 666.7 IU/kg, every other day, i.p.).
At termination, blood and urine sampling was performed, animals were sacrificed and body weight was assessed. Serum PTH was measured using commercially available ELISA kit Mouse PTH 1-84 from Immutopics. Plasma and urinary calcium and creatinine was measured using Stanbio LiquiColor (Arzenazo III) product numbers 0155 and 0430, respectively. All analyses of mice serum, urine, and organ weight were analyzed with ANOVA with control/baseline as reference value. Each p-value presented was adjusted for multiple comparisons with Dunnett's post hoc test.

TERT cells = experiment: UCP1 and DIO2 expression in adipocytes after LH or hCG; format: cell-based, human; conditions: 48 hours exposure, two doses, compared with vehicle
Protocol: The human-derived adipocyte-cell-models used were: hMADS (from a subcutaneous depot), human Simpson-Golabi-Behmel syndrome (SGBS) preadipocyte cell strain, and TERT-hWA (from a subcutaneous neck depot). They were propagated and differentiated as briefly described here: All cells were cultured until two days post-confluence (designated day 0) where they were induced to differentiate in advanced DMEM/F12 supplemented with 2% fetal bovine serum (FBS) (Life Technologies), L-glutamine (2 mM) (Life Technologies), penicillin (62.5 μg/mL), streptomycin (100 μg/mL) Sigma-Aldrich), insulin (5 ug/mL) (Roche), examethasone (1 μM) (Sigma-Aldrich), 3-isobutyl-1-methylxanthine (0.5 mM) (Sigma-Aldrich), rosiglitazone (1 μM) (Cayman Chemical), human cortisol (1 μM) (Sigma-Aldrich) and T3 (1 nM) (Sigma-Aldrich). At day 3, the medium was refreshed with the same medium used at day 0. At day 6 and 9, the cells received Advanced DMEM/F12 supplemented with 2% FBS. At day 12, the adipocytes were defined as mature, and the percentage of differentiated cells was 50-70% based on microscopic inspection irrespective of cell model. RNA was extracted for cDNA synthesis from undifferentiated (designated day 0) and differentiated (day 12) cells and PCR was conducted using specific primers. All analyses were analyzed with student t-test or ANOVA using the corresponding control/baseline as reference value. Every p-value presented was adjusted for multiple comparisons with Dunnett's post hoc test.

healthy men = experiment: Injection of 5000 IU hCG in healthy men, adrenal/pituitary, thyroid and metabolic hormones; format: in vivo, human
Protocol: 11 healthy men and 10 men with previous testicular cancer and hemi-orchiectomy and/or testicular radiation were invited to participate in a prospective clinical trial, receiving 5000 IU hCG (Pregnyl) intramuscularly. They were followed longitudinally with blood- and urine sampling at baseline and 2, 8, 24, 72 and 120 hours after injection. All samples were drawn while fasting, except after 8 hours. Sampling and subsequent injection at baseline and sampling at 24, 72, and 120 hours were done between 8.00 am and 9.30 am. All analyses were analyzed with ANOVA with control/baseline as reference value and every p-value presented was adjusted for multiple comparisons with Dunnett's post hoc test. However, evaluation of changes in QTc interval on ECGs was available only at two time-points and therefore statistically analyzed by paired T-test.

[2] = system: men with previous testicular cancer and hemi-orchiectomy and/or testicular radiation; experiment: Injection of 5000 IU hCG in 10 hemi-orchiectomized men; format: in vivo, human
Protocol: 11 healthy men and 10 men with previous testicular cancer and hemi-orchiectomy and/or testicular radiation were invited to participate in a prospective clinical trial, receiving 5000 IU hCG (Pregnyl) intramuscularly. They were followed longitudinally with blood- and urine sampling at baseline and 2, 8, 24, 72 and 120 hours after injection. All samples were drawn while fasting except after 8 hours. Sampling and subsequent injection at baseline and sampling at 24, 72, and 120 hours were done between 8.00 am and 9.30 am. Electro-cardiogram (ECG) was monitored at baseline and after 8 and 24 hours and QTc interval was calculated using Bazett's formula. Age, BMI and reproductive hormones on the 11 healthy men have previously been published in a baseline table. The inventors also investigated one person with an inactivating mutation in their Calcium Sensing Receptor […] heterozygote, resulting in Familial Hypocalciuric Hypercalcemia (FHH) who was evaluated in our andrological clinic fasting blood- and urine samples which were collected at baseline, 2, 24 and 72 hours after injection of 5000 IU hCG. […] Serum FSH and LH levels were also measured with Delfia, CV<5% for both. […] CTX1 (CV 8%) and P1NP (CV 8%) were both measured on IDSi10. Serum and urinal total calcium (CV 2.5%), creatinine (CV 5%), and phosphate (CV 6%), and serum calcitonin (CV 7%) and serum PTH (CV<4%) were all measured using Cobas 8000 while serum ionized calcium (CV 3%) was measured on ABL 837. Longitudinal assessment of blood- and urine samples (delta values) were calculated as fold change relative to baseline for each person with all samples' initial value starting at one. All analyses were analyzed with ANOVA with control/baseline as reference value. Every p-value presented was adjusted for multiple comparisons with Dunnett's post hoc test. However, evaluation of changes in QTc interval on ECGs was available only at two time points and therefore statistically analyzed using paired T-test. 10 hemi-orchiectomized men were injected with 5000 IU hCG.

[3] = individual men with elevated LH
[4] = individual men with normal or low LH

hCG: human chorionic gonadotropin (Pregnyl), LHCGR agonist with longer serum half-life than LH
calcium excretion, effect of treatment [1]: did not affect calcium excretion | DIO2 expression (TERT cells): downregulated | UCP1 expression (TERT cells): downregulated | ACTH suppressed (healthy men; in vivo): 17% | T3 and T4 lower after hCG stimulation (healthy men; in vivo): 5-8% | TSH drop (healthy men; in vivo): 30% | induced production of 17 hydroxyprogesterone (healthy men; in vivo): 100% | induced production of androstendione (healthy men; in vivo): > 50% | suppression of IGFBP3 (healthy men; in vivo): 3% | suppression of aldosterone (healthy men; in vivo): 38% | suppression of cortisol (healthy men; in vivo): 27% | increase in fasting insulin (healthy men; persistent (after 120 hours)): up to 100% | increase in serum IGF1 (healthy men; persistent (after 120 hours)): 18% | serum ionized calcium and total calcium ([2]; 4 hypogonadotropic men): non-significant trend towards increasing | PTH ([2]; 4 hypogonadotropic men, throughout the study period (8-120 hours)): significant persistent suppression | calciotropic effect ([2]; 6 men with compensatory elevated LH): mimicked that of the healthy men | Δ at 8 hours Ionized Calcium [2, 3]: ↑ and ↓ (5×) | Δ at 8 hours PTH [2, 3]: ↑ | Δ at 8 hours Ionized Calcium [2, 4]: ↑ | Δ at 8 hours PTH [2, 4]: ↓
